Values quoted from earlier work, collected in paper PMC8764113, “Identification of a diarylpentanoid-producing polyketide synthase revealing an unusual biosynthetic pathway of 2-(2-phenylethyl)chromones in agarwood” (Nature Communications, 2022).

System: 5-HT2B receptor
Details: cited from earlier work

O=c1cc(CCc2ccccc2)oc2cccc(O)c12 [5-HPEC, 5-hydroxy-2-(2-phenylethyl)chromone]
5-HT2B receptor activity: selective antagonist
